## Antibody variant affinities, Ab-14 heavy chain, assay B

The measurements come from Li et al. 2023 (doi:10.1038/s41467-023-39022-2) through the FLAb antibody collection.

The target is the same throughout: PDVDLGDISGINAS, from the HR2 region of SARS-CoV-2 spike.

Parent: Ab-14, a human scFv built as VH, the linker GGGGSGGGGSGGGGS, VL. Only the CDRs of the heavy chain vary.
VH: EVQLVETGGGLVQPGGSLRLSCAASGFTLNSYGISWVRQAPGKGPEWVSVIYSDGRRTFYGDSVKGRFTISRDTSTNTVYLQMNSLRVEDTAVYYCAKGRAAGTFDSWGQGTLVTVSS
VL: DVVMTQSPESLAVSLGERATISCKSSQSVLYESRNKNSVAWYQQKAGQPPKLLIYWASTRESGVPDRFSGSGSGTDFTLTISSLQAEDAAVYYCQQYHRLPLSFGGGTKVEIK

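The parent was found by panning a naive human phage display library on the peptide. These sequences belong to a second round, designed from the earlier measurements on random variants of the parent. Several design methods are mixed in this list. AlphaSeq pools MATa yeast showing the antibodies with MATalpha yeast showing the peptide. Mating (16 h, 30 °C) was followed by selection of diploids and sequencing of their barcodes. Read counts were normalised to the haploid input and turned into Kd by a linear fit to BCL2-family pairs of known affinity, for each replicate. There are six technical replicates.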

Each variant is given by its three heavy chain CDRs, as the data file delimits them; those of the parent are GFTLNSYGIS, VIYSDGRRTFYGDSVK, GRAAGTFDS. Affinities are written as log10 Kd with Kd in nM; a lower number is a better binder. Averages over replicates are reported, and they cover detected replicates only. Where no diploid with the target was found in any replicate, the entry reads "not detected": below detection, most likely a poor binder, though not proof of it. Of ten entries with the parent sequence, four were seen in most replicates (averages 0.34 to 2.37), three in one and three in none, so single entries are noisy. As a blank, each scFv also met three strains without target: over all heavy chain designs, 1% of these pairings were detected, typically at 2.08 and seldom below 0.84. Also given: how often the same scFv was detected with the empty control strains. Values of this round are not directly comparable with the first-round values of the same sequences. In the paper, a design with two or fewer of six values counts as a poor binder.

| CDR-H1 | CDR-H2 | CDR-H3 | mean, log10 nM | detected | signal with controls |
|---|---|---|---|---|---|
| GFDLNEYGIS | VIYADGMRTAYSDSVK | GNVAGTFVQ | -0.57 | 6/6 | 0/18 |
| GFDLNEYGIS | VIYADGRRTFYADSVK | GEIAGTFKV | -0.39 | 6/6 | 1/18 |
| GFTLNDYGIS | VIYSDGRRTQEIDSVK | GRPAGTFDS | not detected | 0/6 | 1/18 |
| GFHLNSYGIS | VIYSDGRRTFYADSVK | GQEAGTFDS | 0.10 | 6/6 | 0/18 |
| GFTLNYYGIS | VIYSDGRRTQYIDSVK | GPAAGTFCS | not detected | 0/6 | 0/18 |
| GFELNMYGIS | VIYSDGRRTFYDDSVK | GKAAGTFDS | 0.23 | 6/6 | 0/18 |
| GFHLNEYGIS | VIYSDGRRTFYGDSVK | GEAAGTFDS | 0.70 | 6/6 | 1/18 |
| GFTINSYGIS | VIYSDGRRTAYSDSVK | GRAAGTFDS | 0.31 | 6/6 | 1/18 |
| GFNLNEYGIS | VIYADGMRTFYADSVK | GQIAGTFIV | 0.86 | 5/6 | 0/18 |
| GFDLNEYGIS | VIYADGVRTAYADSVK | GGNAGTFDL | -0.24 | 6/6 | 0/18 |
| GFDLEEYGIS | VIYADGLRQYAQDNVK | GLRSGMGIT | not detected | 0/6 | 0/18 |
| GFDLNEYGIS | VIYADGVRTAYSDSVK | GEQAGTFDV | 0.13 | 6/6 | 0/18 |
| GFSLNSYGIS | VIYSDGRRTFYGDSVK | GKVAGTFDQ | -0.38 | 6/6 | 0/18 |
| GFTLNSYGIS | VIYSDGRRTFYLDSVK | GRAQGTFVS | 2.00 | 1/6 | 1/18 |
| GFDIQEYGIS | VIYADGYRTAYKQKVK | GQIAGGQFD | not detected | 0/6 | 0/18 |
| GFSLNQYGIS | VIYSDGRRTFYSDSVK | GNAAGTFDS | 0.52 | 3/6 | 0/18 |
| GFDLNEYGIS | VIYADGRRTFYTDSVK | GENAGTFDI | -0.56 | 6/6 | 0/18 |
| GFDLNEYGIS | VIYADGMRTFYDDSVK | GQLAGTFDM | 0.06 | 6/6 | 1/18 |
| GFSLDEYGIS | VIYADGIRRVYVDKVK | GQYGGDFIE | not detected | 0/6 | 0/18 |
| GFDLNEYGIS | VIYADGRRTAYSDSVK | GTNAGFFDS | 1.27 | 1/6 | 0/18 |
| GFDLDEYGIS | VIYADGRRTYYADSVK | GSNAGTFDM | -0.40 | 6/6 | 0/18 |
| GFGLNSYGIS | VIYSDGRRTFYKDSVK | GQAAGTFDS | 1.82 | 6/6 | 1/18 |
| GFNLNSYGIS | VIYSDGRRTFYIDDVK | GNAAGTFDS | 0.62 | 6/6 | 0/18 |
| GFSLNCYGIS | VIYSDGRRTFYGDSVK | GRTAGTFDS | 1.47 | 2/6 | 0/18 |
| GFTLNSYGIS | VIYSDGRRTAYDDSVK | GQAAGTFDS | 1.15 | 5/6 | 0/18 |
| GFDLNEYGIS | VIYADGMRTAYADTVK | GNVAGTFDI | 0.01 | 6/6 | 0/18 |
| GFDLNEYGIS | VIYADGMRTAYADTVK | GEVAGTFDV | -0.72 | 6/6 | 1/18 |
| GFSLNSYGIS | VIYSDGRRTFYIDSVK | GHQAGTFDS | 0.46 | 6/6 | 0/18 |
| GFKLNSYGIS | VIYSDGIRTFYGDSVK | GRAAGTFDS | 1.69 | 5/6 | 1/18 |
| GFDLNEYGIS | VIYADGKRTAYIDSVK | GEQAGTFDV | 0.05 | 6/6 | 0/18 |
| GFALDEYGIS | VIYADGKRTAYHNKVK | GGYSFLKGI | not detected | 0/6 | 0/18 |
| GFNINEYGIS | VIYADGLRVQYIDSVK | GNASIFGLD | not detected | 0/6 | 0/18 |
| GFTLNEYGIS | VIYSDGRRTFYMDSVK | GREAGTFDV | 0.35 | 6/6 | 0/18 |
| GFSLDEYGVS | VIYADGMRTQYTPNVK | GQTGFDYGL | not detected | 0/6 | 0/18 |
| GFTLNEYGIS | VIYSDGRRTFYQDSVK | GRAAGTFDQ | 0.61 | 6/6 | 0/18 |
| GFDLNEYGIS | VIYADGRRTFYADSVK | GQLAGTFDF | -0.55 | 6/6 | 0/18 |
| GFTLNEYGIS | VIYSDGRRTFYSDSVK | GRDAGTFDS | 0.43 | 6/6 | 0/18 |
| GFTLNSYGIS | VIYSDGRRTFYGDSVK | GRAANTFDT | 1.93 | 1/6 | 0/18 |
| GFDLMEYGIS | VIYADGQRQYYANKFK | GEISASGLI | 1.01 | 1/6 | 0/18 |
| GFDLNEYGIS | VIYADGRRTSYVDSVK | GEAAGTFDV | 0.80 | 6/6 | 1/18 |
| GFDLDEYGIS | VIYADGRRTAYSDSVK | GNVAGTFDV | 0.19 | 6/6 | 0/18 |
| GFDLNEYGIS | VIYADGRRTAYIDSVK | GNNAGTFDV | -0.15 | 6/6 | 0/18 |
| GFDLNSYGIS | VIYSDGRRTFYGDDVK | GRAAGHFVS | not detected | 0/6 | 0/18 |
| GFDLNEYGIS | VIYADGSRTAYADSVK | GNEAGTFDV | -0.34 | 6/6 | 0/18 |
| GFDLNSYGIS | VIYSDGRRTFYGDNVK | GQEAGTFDS | 0.95 | 3/6 | 0/18 |
| GFDLSEYGIS | VIYADGERANYVSNFK | GVLAGTFVL | 1.15 | 1/6 | 0/18 |
| GFGMEEYGIS | VIYADGQRNAYADEVK | GENAGIFDI | 1.28 | 3/6 | 0/18 |
| GFDLDEYGIS | VIYADGKRTAYTDSVK | GNQAGTFDL | -0.38 | 6/6 | 0/18 |
| GFDLEDYGIS | VIYADGRRTAYIDSVK | GEAAGTFDL | 0.20 | 6/6 | 1/18 |
| GFTLNEYGIS | VIYSDGRRTFYSDSVK | GRAAGKFTS | not detected | 0/6 | 1/18 |
| GFDLNEYGIS | VIYADGVRTFYADSVK | GEVAGTFDL | -0.79 | 6/6 | 0/18 |
| GFPLDSYGIS | VIYSDGRRTFYSDSVK | GRAAFTFDS | not detected | 0/6 | 0/18 |
| GFTLNQYGIS | VIYSDGRRTFYGDSVK | GRAAGTFDA | 1.18 | 5/6 | 0/18 |
| GFDLNEYGIS | VIYADGRRTFYSDSVK | GQTAGTFDA | -0.41 | 6/6 | 0/18 |
| GFTLNDYGIS | VIYSDGRRTGYGDSVK | GRAELTFIS | 2.16 | 1/6 | 0/18 |
| GFDLNEYGIS | VIYADGMRTFYADNVK | GETAGTFDV | -0.30 | 6/6 | 0/18 |
| GFDLNEYGIS | VIYADGVRTQYIDSVK | GNVAGTFDS | -0.44 | 6/6 | 2/18 |
| GFDLEEYGIS | VIYADGSRTSYQEKVK | GLVGGMLDV | 2.18 | 1/6 | 0/18 |
| GFDLNSYGIT | VIYSDGRRTFYGDSVK | GRAAGTFDS | 1.34 | 6/6 | 1/18 |
| GFDIMEYGIS | VIYADGMRQAYLNKVK | GNNGSSGLF | not detected | 0/6 | 0/18 |
| GKSLDEYGIS | VIYADGLRKVYADSVK | GQFDDAMDL | not detected | 0/6 | 0/18 |
| GFGLDEYGIS | VIYADGFRAYYHDNVK | GVNSDVDIL | not detected | 0/6 | 0/18 |
| GFDLNEYGIS | VIYADGRRTFYKDSVK | GETAGTFDS | -0.19 | 6/6 | 0/18 |
| GFDLAEYGIS | VIYADGMRVAYNQNVK | GTGGGSFNF | not detected | 0/6 | 0/18 |
| GFDLNEYGIS | VIYADGRRTFYADSVK | GNAAGTFIQ | 0.82 | 6/6 | 0/18 |
| GFQLNSYGIS | VIYSDGRRTFYIDSVK | GRTAGTFDS | 1.63 | 4/6 | 0/18 |
| GFDLNSYGIS | VIYSDGRRTFYSDSVK | GHAGGTFDS | 1.31 | 5/6 | 0/18 |

Picked from the list: the 5 lowest averages where every replicate gave a value.

| CDR-H1 | CDR-H2 | CDR-H3 | mean, log10 nM | detected | signal with controls |
|---|---|---|---|---|---|
| GFDLNEYGIS | VIYADGVRTFYADSVK | GEVAGTFDL | -0.79 | 6/6 | 0/18 |
| GFDLNEYGIS | VIYADGMRTAYADTVK | GEVAGTFDV | -0.72 | 6/6 | 1/18 |
| GFDLNEYGIS | VIYADGMRTAYSDSVK | GNVAGTFVQ | -0.57 | 6/6 | 0/18 |
| GFDLNEYGIS | VIYADGRRTFYTDSVK | GENAGTFDI | -0.56 | 6/6 | 0/18 |
| GFDLNEYGIS | VIYADGRRTFYADSVK | GQLAGTFDF | -0.55 | 6/6 | 0/18 |